Laboratory results from publication PMC5238559, “Biomimetic synthesis and HPLC–ECD analysis of the isomers of dracocephins A and B” (Beilstein Journal of Organic Chemistry, 2016).
Where two headings read alike, the source gives them in different places.

Columns and labels:
[1] = assay type: in vitro ADME; conditions: pH 7.4, 37 °C, 4 h; for PAMPA-BBB permeability classification: class in words
Experimental: Physicochemical characterization of dracocephins A and B was also carried out. The lipophilicity of neutral species of naringenin and dracocephins A and B are 3.39, 2.52 and 2.39, respectively. Similarly to this lipophilicity trend, the TPSA value of (±)-naringenin is lower than dracocephins A and B, however, there is no difference between the calculated TPSA values of 2a–d and 3a–d. […] Among these proton-dissociation constants, the lowest acidic pKa values are predominant in physiological environment, which is also indicated by the difference of log D values between pH 7.4 and pH 6.5. The blood–brain barrier (BBB) specific penetration of dracocephins isomers has also been studied by the PAMPA (parallel artificial membrane permeability assay)-BBB model system, which indicates passive diffusion of test compounds across the brain capillary endothelium. […]
(§1) n-octanol. From the n-octanol containing titrations the poKa (the apparent ionization constant in the presence of n-octanol) and then logP values were estimated and refined by a weighted non-linear least-squares procedure, where the aqueous pKa values (taken from aqueous titrations) were used as unrefined contributions. For each compound a minimum of three to six titrations at different phase volume ratios were measured, and the respective average logP values were calculated. logD values were also calculated by logP and pKa values using the Henderson– Hasselbalch equation. The relevant relationships between logP, pKa, and poKa, for mono- and multiprotic substances, including cases of ion-pair formation, have been described in detail earlier.
Antioxidant activity: The radical scavenging capacity of dracocephins A and B were tested in the microplate format of the 2,2-diphenyl-1-picrylhydrazyl (DPPH) assay. […]
for 4 h. After the incubation, PAMPA sandwich plates are separated and compound concentrations in donor and acceptor solutions are determined by HPLC-DAD. […]
Cytotoxicity on SH-SY5Y cells: Cytotoxicity on SH-SY5Y cells was measured in an analogous manner as described in the literature. […]

[2] = logP determination by titrations in the presence of n-octanol; logD calculated from logP and pKa; assay type: physicochemical
Experimental: as §1, with “earlier. […]” for “earlier.”

[3] = pKa determination by aqueous titrations; assay type: physicochemical; conditions: phenolic hydroxy group
Experimental: as §1, with “earlier. […]” for “earlier.”

Substance: naringenin [(±)-1, reference compound]
- PAMPA-BBB Pe [1]: 8.8 ± 0.6 10^–6 cm/s
- PAMPA-BBB permeability classification [1]: medium
- PAMPA-BBB permeability classification ([1]; listed as naringenin): medium penetration characteristic
- log P ([2]; n-octanol/water, lipophilicity of neutral species): 3.39 ± 0.01
- log D6.5 ([2]; pH 6.5, calculated from logP and pKa by Henderson–Hasselbalch equation): 3.25
- log D7.4 ([2]; pH 7.4, calculated from logP and pKa by Henderson–Hasselbalch equation): 2.80
- pKa (first, lowest acidic) ([3]; first value in cell): 6.91 ± 0.06
- pKa (second) ([3]; second value in cell): 9.20 ± 0.08
- pKa (third) ([3]; third value in cell): 11.85 ± 0.06
